The data set can be described thus: Water solubility (remark on preparing the stock solution).

On to “Tall oil aminoethyl imidazoline [tall oil aminoethyl imidazole]”, for which the water solubility entry is given as “not water soluble”.

For the origin of these results see US9752236B2, “Corrosion inhibitors” (Rhodia Operations, priority 2010, dated 2017).
